The text below walks through data of paper PMC5464333, “The binding orientations of structurally-related ligands can differ; A cautionary note” (Neuropharmacology, 2017).

The chains behind the UniProt entries cited, without tags or fusion partners. Where a name states a change or a piece, a line headed by the entry shows the natural chain unless it says otherwise. A line that says so, or that is headed by a name, gives the form on record, which may keep a tag or linker.
UniProt P22770: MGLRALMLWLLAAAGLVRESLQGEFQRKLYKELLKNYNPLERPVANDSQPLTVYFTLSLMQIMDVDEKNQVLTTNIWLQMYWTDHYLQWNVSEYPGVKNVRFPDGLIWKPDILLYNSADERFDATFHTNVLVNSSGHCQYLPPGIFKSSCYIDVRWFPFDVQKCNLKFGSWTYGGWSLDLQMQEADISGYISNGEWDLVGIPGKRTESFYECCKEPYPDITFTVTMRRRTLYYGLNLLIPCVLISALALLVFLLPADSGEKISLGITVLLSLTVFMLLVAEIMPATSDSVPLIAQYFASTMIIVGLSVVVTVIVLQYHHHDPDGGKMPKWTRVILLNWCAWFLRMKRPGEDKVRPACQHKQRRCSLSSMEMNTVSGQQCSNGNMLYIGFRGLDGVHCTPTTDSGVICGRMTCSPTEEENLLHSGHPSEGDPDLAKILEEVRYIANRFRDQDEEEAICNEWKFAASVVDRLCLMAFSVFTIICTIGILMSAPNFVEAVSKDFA
α7 nACh receptor (UniProt P22770+P23979, M226I/T225I), UniProt P22770+P23979, fused P22770:T225I/P22770:M226I: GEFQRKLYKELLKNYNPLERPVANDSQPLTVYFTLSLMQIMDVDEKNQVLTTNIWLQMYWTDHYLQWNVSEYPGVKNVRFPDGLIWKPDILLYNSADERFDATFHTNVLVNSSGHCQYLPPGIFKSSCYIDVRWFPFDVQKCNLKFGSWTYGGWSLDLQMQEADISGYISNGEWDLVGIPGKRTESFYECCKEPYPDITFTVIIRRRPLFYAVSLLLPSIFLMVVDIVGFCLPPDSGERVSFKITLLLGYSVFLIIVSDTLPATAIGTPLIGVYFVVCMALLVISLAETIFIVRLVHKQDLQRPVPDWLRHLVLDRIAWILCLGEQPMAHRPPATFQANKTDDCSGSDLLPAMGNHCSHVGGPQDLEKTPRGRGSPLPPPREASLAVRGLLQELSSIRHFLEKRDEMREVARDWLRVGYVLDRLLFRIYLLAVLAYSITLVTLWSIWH
UniProt P23979: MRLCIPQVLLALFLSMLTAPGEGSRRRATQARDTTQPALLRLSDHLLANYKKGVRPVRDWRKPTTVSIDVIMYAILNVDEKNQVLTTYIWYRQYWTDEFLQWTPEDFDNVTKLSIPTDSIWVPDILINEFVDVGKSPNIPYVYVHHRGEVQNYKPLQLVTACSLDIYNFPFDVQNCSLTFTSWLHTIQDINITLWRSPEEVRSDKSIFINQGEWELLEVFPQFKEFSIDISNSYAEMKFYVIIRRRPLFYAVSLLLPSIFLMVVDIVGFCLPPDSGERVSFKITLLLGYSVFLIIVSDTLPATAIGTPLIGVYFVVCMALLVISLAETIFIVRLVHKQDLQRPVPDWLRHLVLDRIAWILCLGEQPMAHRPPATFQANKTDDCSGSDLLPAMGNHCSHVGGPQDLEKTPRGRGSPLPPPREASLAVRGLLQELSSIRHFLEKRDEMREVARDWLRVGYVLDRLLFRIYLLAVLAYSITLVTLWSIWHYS

The assay concerns the target α7 nACh receptor (UniProt P22770+P23979, M226I/T225I). Description: Competition binding with [3H]epibatidine at α7 nACh receptors. Also noted: a chimaera of the chick α7 nACh extracellular domain fused to the 5-HT3 transmembrane/intracellular domains; expressed in transfected cells; host or cells: HEK293 cells, transient transfection (pcDNA3.1, PEI); species or system chick. Here is the method:
Human 5-HT3A subunit cDNA (Accession: P46098, kindly provided by J. […] Cells were transiently transfected with either of these cDNA constructs using polyethyleneimine (PEI: 25 kDa, linear, powder, Polysciences Inc., Eppelheim, Germany). 30 μl of PEI (1 mg ml^−1), 5 μg cDNA and 1 ml DMEM were incubated for 10 min at room temperature, added drop wise to a 90 mm plate of 70–80% conﬂuent HEK293 cells, and incubated for 2–3 days before use. […] Non-specific binding was determined with 30 μM (-)/-nicotine. Equilibrium reactions were incubated on ice for at least 1 h and bound radioligand measured using the same method as described above.

On to `CN1C2CCCC1CC(NC(=O)c1nn(C)c3ccccc13)C2` (centres unmarked) [granisetron, Granisetron], for which the competition result (competition with [3H]epibatidine, concentration of up to 100 μM) is recorded as “not detected”. Also, the binding entry (concentrations of up to 30 μM) is recorded as “no detectable binding”.
